This passage reports IC50 results from ChEMBL document CHEMBL1124831, “Conjugate addition ligands of opioid antagonists. Methacrylate esters and ethers of 6 alpha- and 6 beta-naltrexol” (J Med Chem, 1990).

Amino acid sequences for entries named in this document (tags omitted). A change or cut given only in a name is not applied to a line headed by its entry.
UniProt P41145: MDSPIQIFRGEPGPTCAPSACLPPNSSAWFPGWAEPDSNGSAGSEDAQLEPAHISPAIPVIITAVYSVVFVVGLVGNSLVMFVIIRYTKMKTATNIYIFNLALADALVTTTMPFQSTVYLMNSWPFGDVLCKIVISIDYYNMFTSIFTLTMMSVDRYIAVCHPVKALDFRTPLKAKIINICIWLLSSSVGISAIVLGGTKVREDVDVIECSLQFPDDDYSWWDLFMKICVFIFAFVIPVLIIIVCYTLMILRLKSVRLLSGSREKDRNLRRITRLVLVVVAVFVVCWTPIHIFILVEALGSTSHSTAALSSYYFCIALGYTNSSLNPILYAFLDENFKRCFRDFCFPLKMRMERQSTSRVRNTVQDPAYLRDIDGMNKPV
UniProt P41143: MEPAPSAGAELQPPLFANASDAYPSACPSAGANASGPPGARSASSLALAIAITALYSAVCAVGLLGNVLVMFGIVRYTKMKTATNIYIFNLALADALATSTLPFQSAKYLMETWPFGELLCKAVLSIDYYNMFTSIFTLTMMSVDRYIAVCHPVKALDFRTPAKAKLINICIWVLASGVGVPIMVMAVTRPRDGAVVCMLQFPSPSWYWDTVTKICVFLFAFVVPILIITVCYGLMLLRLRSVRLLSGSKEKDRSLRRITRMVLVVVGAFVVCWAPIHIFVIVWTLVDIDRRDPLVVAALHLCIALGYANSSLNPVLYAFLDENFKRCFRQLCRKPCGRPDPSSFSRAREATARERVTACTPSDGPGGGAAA
UniProt P35372: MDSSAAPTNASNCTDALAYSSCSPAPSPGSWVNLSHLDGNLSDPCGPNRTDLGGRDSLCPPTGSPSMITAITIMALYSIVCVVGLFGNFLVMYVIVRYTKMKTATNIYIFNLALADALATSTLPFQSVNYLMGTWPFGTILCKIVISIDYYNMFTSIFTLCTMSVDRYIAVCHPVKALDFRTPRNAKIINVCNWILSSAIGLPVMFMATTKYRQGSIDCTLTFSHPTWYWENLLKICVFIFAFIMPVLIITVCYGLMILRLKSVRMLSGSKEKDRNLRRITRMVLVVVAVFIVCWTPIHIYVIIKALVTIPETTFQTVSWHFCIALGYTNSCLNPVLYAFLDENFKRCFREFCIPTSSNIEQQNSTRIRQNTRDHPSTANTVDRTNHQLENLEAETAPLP

The assay concerns the target Opioid receptors; mu/kappa/delta (Homo sapiens, UniProt P41145+P41143+P35372). Nature of the assay: In vitro binding affinity against Opioid receptors from bovine caudate nucleus determined in presence of [3H]- bremazocine (0.5 nM). In kind it is protein assay, Bos taurus. Conditions: target entry is the homologue from another species.

Take `CCC12CCN(CC3(O)CC3)C(Cc3ccc(O)cc31)C2(C)C` (stereo unspecified) [BREMAZOCINE]: the IC50 came to 0.5 nM.
